Biological target: Sodium- and chloride-dependent GABA transporter 1 (Mus musculus, UniProt P31648)
Assay: Inhibition of [3H]GABA uptake at mouse GAT1 expressed in HEK cells
Format: cell-based, HEK293
Outline: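 Stably transfected HEK cells were trypsinized, washed in PBS, and resuspended in Krebs-Tris buffer pH 7.2 at about 100,000 cells/well. They were pre-equilibrated 25 min at 37 °C with compound in 1% DMSO, then given 8 nM [³H]GABA plus 32 nM unlabeled GABA for 4 min.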

SMILES: O=C(O)[C@@H]1CCCNC1 [(R)-NIPECOTIC ACID]
- IC50: 8.51 µM

SMILES: O=C(O)[C@H]1CCCNC1 [(S)-NIPECOTIC ACID]
- IC50: 74.1 µM

SMILES: O=C(O)C1CCCNC1 (stereo not drawn) [NIPECOTIC ACID]
- IC50: 13.2 µM

Reference: ChEMBL document CHEMBL1140995, “Synthesis and biological evaluation of aminomethylphenol derivatives as inhibitors of the murine GABA transporters mGAT1-mGAT4” (Eur J Med Chem, 2008)
